Experimental data: article PMC6009935 (Journal of Enzyme Inhibition and Medicinal Chemistry, 2017)

How the values were obtained:
MOR = target: T1, MOR (Rattus norvegicus, UniProt P33535); assay: Radioligand competition binding with [3H]DAMGO
T1 construct: a: performed in rat whole brain membrane homogenates; from tissue; host or cells: Wistar rat whole brain membrane homogenate
Description: (§1) Tris-HCl, EGTA, NaCl, MgCl2 x 6H2O, GDP, the GTP analogue GTPγS, were purchased from Sigma-Aldrich (Budapest, Hungary). Fatty acid free bovine serum albumin (BSA) was purchased from Serva (Heidelberg, Germany). Naloxone was kindly provided by the company Endo Laboratories DuPont de Nemours (Wilmington, DE, USA). HS665 was provided by Schmidhammer’s group (University of Innsbruck, Austria). […]
(§2) purchased from Tocris Bioscience (Bristol, UK).
(§3) DMSO. All compounds were stored in 1 mM stock solution at -20 °C. The radiolabelled GTP analogue, [35S]GTPγS (specific activity: 1000 Ci/mmol) were purchased from Hartmann Analytic (Braunschweig, Germany). [3H]DAMGO (specific activity: 38.8 Ci/mmol),12 [3H]IleDelt II (specific activity: 19,6 Ci/mmol), [3H]WIN55,212-2 (specific activity: 13,1 Ci/mmol) and [3H]HS665 (specific activity: 36.62 Ci/mmol),3 were radiolabeled by the Laboratory of Chemical Biology group in BRC (Szeged, Hungary).
(§4) For membrane homogenate preparations male and female Wistar rats (250-300 g body weight) and male guinea pigs (~700 g body weight, LAL/HA/BR strain) were used. Rats were housed in the local animal house of BRC (Szeged, Hungary), while guinea pigs were housed in LAB-ÁLL Bt.
(§5) (Budapest, Hungary). […]
(§6) binding was determined in the absence of unlabeled compounds. […]

KOR = target: T2, KOR (Cavia porcellus, UniProt P41144); assay: Radioligand competition binding with [3H]HS665; design: species or system guinea pig
T2 construct: b: performed in guinea pig whole brain membrane homogenates; from tissue; host or cells: guinea pig (LAL/HA/BR strain) whole brain membrane homogenate
Description: as §1, §2, §3, §4, §5, §6

## C[C@@H](NC(=O)[C@@H](N)Cc1ccc(O)cc1)C(=O)NCC(=O)N[C@@H](Cc1ccccc1)C(N)=O [Compound 10, Tyr-D-Ala-Gly-Phe-NH2, reference compound]
MOR
  Selectivity ratio DOR/MOR: 106.8
  Selectivity ratio KOR/MOR: 368.6
KOR
  Ki: 369 nM
  Selectivity ratio DOR/KOR: 0.28
